Values of other authors as cited in patent publication US7090866B2.

Conditions: intravenous dose

For CCC(=O)N(c1ccccc1)C1CCN(CCc2ccccc2)CC1, the “dose recovered in urine as the unchanged drug” value is listed as “less than 10%”.

Only a part of the results on these compounds is given; other tests are left out.
